This passage reports IC50 results from ChEMBL document CHEMBL1134304, “Discovery of novel p-arylthio cinnamides as antagonists of leukocyte function-associated antigen-1/intercellular adhesion molecule-1 interaction. 4. Structure-activity relationship of substituents on the benzene ring of the cinnamide” (J Med Chem, 2001).

The target of this assay is T1, Integrin alpha-L (Homo sapiens, UniProt P20701).
T1 sequence (P20701 whole entry): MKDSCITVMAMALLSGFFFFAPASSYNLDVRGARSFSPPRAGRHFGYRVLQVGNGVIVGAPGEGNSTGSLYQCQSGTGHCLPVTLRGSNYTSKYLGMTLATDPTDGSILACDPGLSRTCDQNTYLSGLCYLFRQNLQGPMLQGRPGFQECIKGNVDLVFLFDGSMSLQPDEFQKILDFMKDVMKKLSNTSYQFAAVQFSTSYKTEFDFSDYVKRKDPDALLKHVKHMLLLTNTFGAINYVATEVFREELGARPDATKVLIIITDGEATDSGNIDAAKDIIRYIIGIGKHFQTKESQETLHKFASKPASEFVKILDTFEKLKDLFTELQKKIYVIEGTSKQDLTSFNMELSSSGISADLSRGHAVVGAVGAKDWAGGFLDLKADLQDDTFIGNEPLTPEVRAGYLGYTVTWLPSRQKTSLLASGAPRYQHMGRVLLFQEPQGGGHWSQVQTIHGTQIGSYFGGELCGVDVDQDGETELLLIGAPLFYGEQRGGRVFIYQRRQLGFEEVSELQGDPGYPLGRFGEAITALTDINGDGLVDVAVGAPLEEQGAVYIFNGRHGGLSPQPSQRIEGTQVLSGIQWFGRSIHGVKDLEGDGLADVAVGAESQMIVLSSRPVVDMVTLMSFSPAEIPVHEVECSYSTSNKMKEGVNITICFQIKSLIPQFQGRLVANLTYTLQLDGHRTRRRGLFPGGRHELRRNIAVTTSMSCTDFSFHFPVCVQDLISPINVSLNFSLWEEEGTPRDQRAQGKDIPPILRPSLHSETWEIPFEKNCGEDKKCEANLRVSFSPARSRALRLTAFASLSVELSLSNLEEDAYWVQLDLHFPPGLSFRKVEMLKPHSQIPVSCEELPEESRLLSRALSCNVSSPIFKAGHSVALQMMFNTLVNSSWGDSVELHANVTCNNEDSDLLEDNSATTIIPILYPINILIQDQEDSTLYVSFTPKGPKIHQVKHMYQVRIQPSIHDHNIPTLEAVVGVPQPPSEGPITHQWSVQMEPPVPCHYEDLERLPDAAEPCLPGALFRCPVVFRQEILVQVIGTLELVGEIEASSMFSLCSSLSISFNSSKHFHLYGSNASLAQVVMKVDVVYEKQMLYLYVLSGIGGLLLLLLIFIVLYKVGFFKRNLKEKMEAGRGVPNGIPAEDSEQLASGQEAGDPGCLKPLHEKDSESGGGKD
As to the kind of experiment: Inhibition of intercellular adhesion molecule-1 (ICAM-1) binding to recombinant LFA-1, range(30-60).

For the compound `CC(=O)N1CCN(C(=O)/C=C/c2ccc(Sc3ccccc3C(C)C)c([N+](=O)[O-])c2)CC1` [A-286982], the IC50 was 44 nM.

As usually defined, the IC50 is the point on the concentration scale where inhibition reaches its midpoint.
